Here are results for two compounds from US6458834B2, “Pentacyclic triterpenes” (Micro Flo Company, priority 1998, dated 2002).

The target of the experiment is T1, human leucocyte elastase (Homo sapiens, UniProt P08246).
T1 construct: purchased Elastin Products
T1 sequence (P08246 30-267): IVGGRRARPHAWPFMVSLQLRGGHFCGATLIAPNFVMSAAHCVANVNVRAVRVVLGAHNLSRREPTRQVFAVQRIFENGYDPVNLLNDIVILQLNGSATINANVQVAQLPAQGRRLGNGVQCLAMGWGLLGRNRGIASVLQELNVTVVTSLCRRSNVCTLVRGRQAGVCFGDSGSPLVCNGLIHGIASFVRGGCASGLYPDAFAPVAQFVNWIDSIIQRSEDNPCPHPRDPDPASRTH
Put plainly: Human leucocyte elastase (HLE) inhibition, MeO-Suc-Ala-Ala-Pro-Val-pNA substrate. In kind it is biochemical. The settings on record: 0.1 M Tris, 0.5 M NaCl, 3% DMSO, pH 7.5; 15 min preincubation at room temperature. How it is done:
Stock solutions were mixed to yield a reaction mixture consisting of 0.5 mM MeO-Suc-Ala-Ala-Pro-Val-pNA (Sigma) and […] human leucocyte elastase (Elastin Products) in 0.1 M Tris, 0.5 M NaCl and 3% DMSO (v/v) at a pH of 7.5. Test compounds were solubilized in DMSO. Equal volumes of enzyme and inhibitor were mixed and allowed to incubate for 15 minutes at room temperature. The reaction was started by the addition of a third equal volume containing substrate. Reactions were carried out in microliter plates.

One may read the IC50 as the concentration that gives 50% inhibition. Read a low IC50 as inhibition by little substance. As for `C[C@H]1[C@H](C)CC[C@]2(C)CC[C@]3(C)C(=CC[C@@H]4[C@@]5(C)CC[C@H](O)C(C)(C)[C@@H]5CC[C@]43C)[C@H]12` [Example 19, α-Amyrin], the IC50 turned out to be 21.1 µM.
The result for Echinocystic acid [Example 22] reads 21.1 µM.
